Results on 1 compound are retold here after ChEMBL document CHEMBL1140824, “Hepatoselectivity of statins: design and synthesis of 4-sulfamoyl pyrroles as HMG-CoA reductase inhibitors” (Bioorg Med Chem Lett, 2008).

One assay has as its system Hepatocyte. Nature of the assay: Selectivity, ratio of IC50 for rat L6 myocyte to IC50 for rat hepatocyte. It counts as functional.
Assay [1] concerns the target T1, 3-hydroxy-3-methylglutaryl-coenzyme A reductase (Rattus norvegicus, UniProt P51639).
T1 sequence (P51639 whole entry): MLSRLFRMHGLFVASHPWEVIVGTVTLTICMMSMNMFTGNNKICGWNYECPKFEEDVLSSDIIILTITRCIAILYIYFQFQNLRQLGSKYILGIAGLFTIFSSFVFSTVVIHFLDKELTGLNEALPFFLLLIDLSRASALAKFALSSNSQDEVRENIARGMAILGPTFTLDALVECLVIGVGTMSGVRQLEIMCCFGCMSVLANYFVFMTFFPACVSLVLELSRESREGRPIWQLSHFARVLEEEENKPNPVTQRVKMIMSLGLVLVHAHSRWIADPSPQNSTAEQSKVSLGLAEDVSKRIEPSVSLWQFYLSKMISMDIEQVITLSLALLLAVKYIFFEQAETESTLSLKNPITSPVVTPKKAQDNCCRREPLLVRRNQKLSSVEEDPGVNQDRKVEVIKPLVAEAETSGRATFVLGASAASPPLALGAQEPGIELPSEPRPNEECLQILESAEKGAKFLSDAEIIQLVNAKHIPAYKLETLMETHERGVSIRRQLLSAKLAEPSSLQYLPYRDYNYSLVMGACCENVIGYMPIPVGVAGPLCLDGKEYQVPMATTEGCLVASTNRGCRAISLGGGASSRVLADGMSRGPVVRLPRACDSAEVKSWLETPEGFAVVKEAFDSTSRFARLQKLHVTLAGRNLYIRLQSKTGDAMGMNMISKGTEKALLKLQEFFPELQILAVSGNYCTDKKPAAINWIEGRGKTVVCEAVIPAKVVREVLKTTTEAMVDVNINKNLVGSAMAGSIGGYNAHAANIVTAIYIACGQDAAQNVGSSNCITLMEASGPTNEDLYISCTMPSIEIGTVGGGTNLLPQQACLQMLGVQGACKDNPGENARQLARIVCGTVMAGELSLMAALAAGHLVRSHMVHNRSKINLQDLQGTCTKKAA
Nature of the assay: Inhibition of rat microsomal HMGCoA reductase.

For `CC(C)c1c(C(=O)Nc2ccccc2)c(-c2ccccc2)c(-c2ccc(F)cc2)n1CC[C@@H](O)C[C@@H](O)CC(=O)O` [ATORVASTATIN], in the assay with Hepatocyte, the “Ratio IC50” value is given as 144. This compound also gave an IC50 in assay [1] of 3.8 nM.

The term IC50 denotes the concentration that gives 50% inhibition. The low end stands for greater potency in that assay, the high end for weaker potency in that assay.
